High-throughput results from PubChem.
IL2 activator = IL-2 activation; activation, % (series mostly up to about 46 µM); AID 652025; 0.065% of 360,000 active; IL-2 activation reporter assay, cell-based qHTS; stimulated with anti-CD3/CD4/CD28 beads; in transgenic mouse T cells; in the data active = activation above about 50%; inconclusive = mostly about 30% to 49%; also: 0% is about no effect
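Quantitative HTS in unstimulated transgenic mouse T cells, with memory T cells as non-tolerant control and PMA/ionomycin as tolerance-bypass control. Compound pretreatment lasted 60 minutes before 18 h bead stimulation; EGFP/DsRed fluorescence read.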
miR-21 FLuc = miR-21 reporter, rising signal | HeLa miR-21 FLuc reporter, luciferase, 48 h | Potency, µM (top dose mostly 38.3 µM), inactives show at the top dose reporter change, positive = more light | 340,000 tested, under 10 active | AID 2288; active = well fitted rising curve with a large enough effect; inconclusive = small, poorly fitted or top-dose-only effect; inactive = no such curve, though single readings can be large or run the other way;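 further: % of control where 0% means no effect; miR-21 action dims this reporter so a rising signal means less miR-21 action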
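HeLa cells stably expressing CMV-driven firefly luciferase with a downstream miR-21 binding sequence, endogenously expressing miR-21, were treated with titrations (up to about 40uM final) for 48 hours at 37 degree Celsius. Luciferase luminescence was read after lysis.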
A549 tox-1 = kills or reduces viability of A549 cells in Nrf2 counter-screen; A549 ARE-Fluc cells, CellTiter-Fluor viability, 18-24 h; Potency, µM (series often up to 46 µM), without a hit: top-dose activity change, negative = cytotoxicity, most hits filed as inhibitors; 0.16% of 390,000 active; AID 504648; also: potency is read from the fitted curve at half-maximal effect; % is scaled to controls: 0 for no effect and ±100 for the full control effect
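A549 ARE_Fluc cells in 5% FBS OPTI-MEM were exposed to compounds in concentration-response for 18-24 h at 37 deg C. Viability was read by CellTiter-Fluor fluorescence (Ex 405/Em 525) after 30 min, before the luciferase read.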
ClpP mod = qHTS Assay for Activators of ClpP | ATP-dependent Clp protease proteolytic subunit (Bacillus subtilis (strain 168)), P80244 | purified B. subtilis ClpP, FRET peptide cleavage, 20 min | Potency, µM (highest dose often 57.5 µM), without a hit: at the top dose activity change, negative = active | 1.9% of 340,000 active | AID 651965, 2013; active = well fitted falling curve with a large enough effect; inconclusive = small, poorly fitted or top-dose-only effect; inactive = no such curve, though single readings can be large or run the other way; also: potency is read from the fitted curve at half-maximal effect; the source files actives as falling curves though it sought activators and does not explain the sign; nearly all actives have a fitted effect of over 65% in size
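ClpP 10 microg/mL final, pH 8 Tris/KCl buffer with BSA, glycerol, Tween-20; compound pinned in; FRET-FV substrate; RT 20 min; Ex320/Em430; ΔFRET vs ADEP 5.8 microM, DMSO, no enzyme.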
Nrf2 ARE act = activators of Nrf2 (ARE) signaling. AREc32 ARE-luciferase reporter (MCF7-derived line), luminescence, 24 h. Potency, µM (highest dose often 46.1 µM), inactives show at the highest dose activation, actives largely listed as activators. 0.31% of 410,000 active. AID 624171; also: potency is read from the fitted curve at half-maximal effect; % of control where 0% means no effect; nearly all actives have a fitted effect of over 65% in size
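Steps: seed AREc32_Fluc cells (1000/well, 5% FBS OPTI-MEM); incubate overnight at 37 deg C; add 23 nL compound; incubate 24 hr; add Steady-Glo; hold 30 min RT; read luminescence.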
Nrf2 inh = Nrf2 pathway inhibition; A549 ARE-Fluc reporter, luciferase luminescence, 18-24 h; 2.1% of 360,000 active; Potency, µM (titrated, usually from 46 µM), inactives show at the highest dose activity change, negative = inhibition, usual class: inhibitors; also: potency is read from the fitted curve at half-maximal effect; % is scaled to controls: 0 for no effect and ±100 for the full control effect; nearly all actives have a fitted effect of over 60% in size
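Concentration-response testing used A549 ARE_Fluc cells at 5000 cells/well. Following an 18-24 h compound incubation, viability was read by fluorescence (Ex 405/Em 525) and luciferase output by luminescence.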
FLuc counter 3 = blocks purified firefly luciferase in Nrf2 counterscreen; shares compounds with Nrf2 inh; purified firefly luciferase, luminescence inhibition; Potency, µM (doses to about 57.5 µM), inactives show at the highest dose activity change, negative = inhibition, hits mostly inhibitors; 4% of 1,400 active; also: potency is read from the fitted curve at half-maximal effect; % is scaled to controls: 0 for no effect and ±100 for the full control effect; nearly all actives have a fitted effect of over 65% in size
A549 tox-2 = toxic to A549 ARE-Fluc cells in Nrf2 counterscreen | shares compounds with Nrf2 inh | A549 ARE-Fluc cells, cytotoxicity counterscreen | Potency, µM (doses to about 46.1 µM), inactives show at the top dose activity change, negative = cytotoxicity, most hits filed as inhibitors | 2% of 1,400 active;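 also: potency is read from the fitted curve at half-maximal effect; cells exposed to compounds for 18 to 24 hours; % is scaled to controls: 0 for no effect and ±100 for the full control effect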
Nrf2 ARE inh = Nrf2 inhibition confirmed, A549 ARE-luciferase; shares compounds with Nrf2 inh; A549 ARE-firefly luciferase reporter, luminescence; Potency, µM (series often up to 46.1 µM), inactives show top-dose activity change, negative = inhibition, actives largely listed as inhibitors; 74% of 1,400 active; AID 720524; also: potency is read from the fitted curve at half-maximal effect; % is scaled to controls: 0 for no effect and ±100 for the full control effect; nearly all actives have a fitted effect of over 65% in size
* hit, by the source's call. A selection: hits, their analogues and other compounds. The true share with any hit is near 3.7%. Unless noted, calls follow the shape of the dose curve; as a rule, active = well fitted curve in the direction sought with a large enough effect; inconclusive = small, poorly fitted or top-dose-only effect, or another doubt; inactive = no such curve, though single readings can be large; an effect the other way counts as inactive or inconclusive.

`CC(C)CCNC(=O)C(c1ccco1)N(CCCO)C(=O)Cn1nnc(-c2ccc(F)cc2)n1` (stereo unspecified) gave IL2 activator -4.7, miR-21 FLuc -0.9%, A549 tox-1 -18.3%, ClpP mod -0.5%, Nrf2 ARE act -0.3% and Nrf2 inh 4.2%.
CCc1cc(C(=O)NC2CCCc3c2cnn3-c2cccc(C)c2C)n(C)n1 (stereo unspecified) was read as IL2 activator -1.1, miR-21 FLuc 15.9%, A549 tox-1 inconclusive, ClpP mod -1.2%, Nrf2 ARE act 1.3%, Nrf2 inh 0.184µM*, FLuc counter 3 0.9%, A549 tox-2 -3.4% and Nrf2 ARE inh 0.082µM*.
`Cc1cc(C(=O)NC2CCCc3c2cnn3-c2ccc(C)c(C)c2)n(C)n1` (stereo unspecified) gave IL2 activator -3.2, miR-21 FLuc 22.6%, A549 tox-1 -21.3%, ClpP mod -0.5%, Nrf2 ARE act -0.6%, Nrf2 inh 0.206µM*, FLuc counter 3 -6.7%, A549 tox-2 -10.9% and Nrf2 ARE inh 0.0231µM*.
`Cc1cccc(-n2ncc3c2CCCC3NC(=O)C2(C(N)=O)CC2)c1C` (stereo unspecified) gave IL2 activator -1.5, miR-21 FLuc 17.9%, A549 tox-1 -8.2%, ClpP mod 1.9%, Nrf2 ARE act -0.9%, Nrf2 inh 2.31µM*, FLuc counter 3 -1.9%, A549 tox-2 -4.9% and Nrf2 ARE inh 3.66µM*.
For Cc1cc(C)n(CC(=O)NC2CCCc3c2cnn3-c2ccc(C)c(C)c2)n1 (stereo unspecified) the results were IL2 activator -0.1, miR-21 FLuc -33.3%, A549 tox-1 -0.1%, ClpP mod -0.6%, Nrf2 ARE act 0.2% and Nrf2 inh inconclusive.
For Cc1cc(C)cc(-n2ncc3c2CCCC3NC(=O)C2(C(N)=O)CC2)c1 (stereo unspecified) the results were IL2 activator 0.7, miR-21 FLuc inconclusive, A549 tox-1 -1.4%, ClpP mod -2.1%, Nrf2 ARE act 2.8% and Nrf2 inh inconclusive.
Cc1cc(C)c(C(=O)NC2CCCc3c2cnn3-c2cccc(C)c2C)o1 (stereo unspecified) was read as IL2 activator -5.1, miR-21 FLuc 10.6%, A549 tox-1 -12.7%, ClpP mod -1.7%, Nrf2 ARE act 0.3% and Nrf2 inh inconclusive.
Screening COc1ccc(/C=C2\SC(=O)N(CCCC(=O)Nc3cc(Cl)ccc3C(=O)O)C2=O)cc1 returned IL2 activator 2.8, A549 tox-1 -9.7%, ClpP mod -12.0%, Nrf2 ARE act -2.3%, Nrf2 inh 0.731µM*, FLuc counter 3 12µM*, A549 tox-2 -5.7% and Nrf2 ARE inh 1.46µM*.
Screening O=C(Oc1cccnc1)c1ccc([N+](=O)[O-])cc1Cl returned IL2 activator -2.2, miR-21 FLuc 0.2%, A549 tox-1 5.3%, ClpP mod 2.8%, Nrf2 ARE act -0.9%, Nrf2 inh 1.03µM*, FLuc counter 3 4.3% and A549 tox-2 inconclusive.
`CC(C)c1ccc(NS(=O)(=O)c2ccc3[nH]cc(C(=O)N4CCCC4)c(=O)c3c2)cc1` gave miR-21 FLuc -0.9%, A549 tox-1 -0.2%, ClpP mod inconclusive, Nrf2 ARE act -0.6% and Nrf2 inh 10.9%.
For CCN(CC)CCNC(=O)C(=O)Nc1c2c(nn1-c1ccc(F)cc1)CSC2 the results were miR-21 FLuc -12.1%, A549 tox-1 -0.4%, ClpP mod -2.4% and Nrf2 ARE act 0.2%.
For Cc1cccnc1CCNC(=O)c1ccc(OC2CCN(Cc3ccccn3)CC2)cc1 the results were IL2 activator -3.6, miR-21 FLuc -7.0%, A549 tox-1 -9.0%, ClpP mod -1.1%, Nrf2 ARE act -0.6% and Nrf2 inh 18.2%.

Grouped by structure: those above containing a furan ring, fused or not (2)
`CC(C)CCNC(=O)C(c1ccco1)N(CCCO)C(=O)Cn1nnc(-c2ccc(F)cc2)n1` (stereo unspecified) gave IL2 activator -4.7, miR-21 FLuc -0.9%, A549 tox-1 -18.3%, ClpP mod -0.5%, Nrf2 ARE act -0.3% and Nrf2 inh 4.2%.
Cc1cc(C)c(C(=O)NC2CCCc3c2cnn3-c2cccc(C)c2C)o1 (stereo unspecified) was read as IL2 activator -5.1, miR-21 FLuc 10.6%, A549 tox-1 -12.7%, ClpP mod -1.7%, Nrf2 ARE act 0.3% and Nrf2 inh inconclusive.

Going on with the list:
CCn1nc(C)c(CNC(=O)c2ccc(OC3CCN(Cc4ccccn4)CC3)cc2)c1C was read as IL2 activator -3.2, miR-21 FLuc 19.5%, A549 tox-1 -15.5%, ClpP mod -1.7%, Nrf2 ARE act 0.1%, Nrf2 inh 1.46µM*, FLuc counter 3 1.3%, A549 tox-2 -5.6% and Nrf2 ARE inh 1.46µM*.
Screening C[C@H]1O[C@@H](O[C@H]2[C@@H](O)C[C@H](O[C@H]3[C@@H](O)C[C@H](O[C@H]4CC[C@@]5(C)[C@H](CC[C@@H]6[C@@H]5C[C@@H](O)[C@]5(C)[C@@H](C7=CC(=O)OC7)CC[C@]65O)C4)O[C@@H]3C)O[C@@H]2C)C[C@H](O)[C@@H]1O returned IL2 activator -0.1, miR-21 FLuc inconclusive, A549 tox-1 inconclusive, ClpP mod 0.0%, Nrf2 ARE act -2.9%, Nrf2 inh 0.13µM*, FLuc counter 3 2.1%, A549 tox-2 inconclusive and Nrf2 ARE inh 0.058µM*.
For COc1cc([N+](=O)[O-])cc(/C=N/NC(=O)c2ccc(NC(=O)c3ccc(C)cc3)cc2)c1O the results were IL2 activator -0.7, miR-21 FLuc 15.1%, A549 tox-1 inconclusive, Nrf2 ARE act 0.2%, Nrf2 inh 4.61µM*, FLuc counter 3 -15.7%, A549 tox-2 inconclusive and Nrf2 ARE inh 6.51µM*.
`Cc1nc2ccc(NC(=O)c3cccs3)cc2c(=O)n1Cc1ccc(Cl)cc1` gave IL2 activator -1.6, miR-21 FLuc 26.8%, A549 tox-1 inconclusive, ClpP mod -3.9%, Nrf2 ARE act 8.8%, Nrf2 inh 4.61µM*, FLuc counter 3 -10.6%, A549 tox-2 inconclusive and Nrf2 ARE inh 16.4µM*.
Screening CCn1nc(C)c2c(-c3ccccc3)cc(=O)n(C(C)C(=O)NCCc3ccc(Cl)cc3)c21 (stereo unspecified) returned miR-21 FLuc 0.5%, A549 tox-1 -12.3%, ClpP mod 3.9%, Nrf2 ARE act 0.1% and Nrf2 inh -35.3%.
